Earlier results as cited in US20140128375A1, “B[…] AS CGRP RECEPTOR ANTAGONISTS” (priority 2006, published 2014).

The chains behind the UniProt entries cited, without tags or fusion partners. Residues count along the entry.
UniProt Q63118, 24-464: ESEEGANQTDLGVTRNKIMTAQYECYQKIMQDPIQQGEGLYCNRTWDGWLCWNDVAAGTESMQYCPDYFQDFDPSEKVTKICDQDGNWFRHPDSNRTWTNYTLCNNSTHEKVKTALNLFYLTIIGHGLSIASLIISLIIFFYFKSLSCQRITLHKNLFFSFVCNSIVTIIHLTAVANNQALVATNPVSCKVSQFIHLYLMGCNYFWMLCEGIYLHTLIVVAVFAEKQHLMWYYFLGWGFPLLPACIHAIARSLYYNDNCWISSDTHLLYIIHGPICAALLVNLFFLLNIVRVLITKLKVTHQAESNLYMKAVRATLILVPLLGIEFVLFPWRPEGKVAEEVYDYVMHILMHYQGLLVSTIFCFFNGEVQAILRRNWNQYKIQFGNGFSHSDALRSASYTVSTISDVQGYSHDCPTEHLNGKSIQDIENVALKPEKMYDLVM
UniProt Q9JJ74, 27-148: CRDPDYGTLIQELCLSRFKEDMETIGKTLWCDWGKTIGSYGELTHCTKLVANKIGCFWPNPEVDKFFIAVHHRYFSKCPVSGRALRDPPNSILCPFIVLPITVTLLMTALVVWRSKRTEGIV

Assays:
CGRP [1] = target: T1, CGRP (Rattus norvegicus, UniProt Q63118+Q9JJ74); conditions: rats, electrical stimulation of the dura mater, prior administration
T1 construct: host or cells: living rat (dural and facial vasculature)

CGRP [2] = target: T1, CGRP; conditions: trigeminal ganglion stimulation

## CGRP(8-37)
CGRP [1]
  effect on increase of middle meningeal artery diameter: blocked
CGRP [2]
  effect on increase of facial blood flow: inhibited
